Target: Dipeptidyl peptidase 1 (Homo sapiens, UniProt P53634)
Assay: Inhibition of DPP1 in human U937 cells using Gly-Phe-AFC as substrate preincubated for 60 mins followed by substrate addition by fluorescence assay
Assay type: cell-based, U-937

Sequences of proteins named here, by UniProt entry; tags and fusion partners are left off. Residues count along the entry.
UniProt P53634, 395-463 limits assumed: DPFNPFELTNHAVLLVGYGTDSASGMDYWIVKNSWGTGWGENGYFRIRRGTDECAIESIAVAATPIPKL
UniProt P53634, 25-134 limits assumed: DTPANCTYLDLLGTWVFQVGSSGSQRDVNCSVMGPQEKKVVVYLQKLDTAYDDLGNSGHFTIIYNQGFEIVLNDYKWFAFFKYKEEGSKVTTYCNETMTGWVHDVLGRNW
UniProt P53634, 231-394 limits assumed: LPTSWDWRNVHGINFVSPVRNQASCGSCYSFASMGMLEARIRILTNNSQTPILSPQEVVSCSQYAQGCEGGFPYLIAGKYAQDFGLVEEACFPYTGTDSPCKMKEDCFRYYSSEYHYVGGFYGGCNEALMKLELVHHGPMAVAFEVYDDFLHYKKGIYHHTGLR

IC50: 7.94 nM
Compound: N#Cc1ccc(-c2ccc(C[C@@H](C#N)NC(=O)C3(N)CCOCC3)cc2)cc1
